Legend:
[1] = system: E-cadherin promoter activity (EcadPro-RFP) in SW620 cells; test: EcadPro-RFP (mCherry) EMT reporter assay; settings: SW620 tumor organoids
Human TOP2A = Human TOP2A (Homo sapiens, UniProt P11388); test: TOP2A DNA decatenation assay (kDNA, agarose gel)
SW620 tumor organoids [2] = test: Tumor organoid cytotoxicity / 3D cell viability (CellTox Green); settings: read-out: % Viability IC50, Table 2, 72 hours
[3] = system: TOP2A-dependent TCF-transcription in SW620-TOP tumor organoids; test: TCF (TOPflash) reporter assay in 3D tumor organoids; format: cell-based; settings: read-out: % TCP inhibition IC50, Table 2, 72 hours
Description: TCF reporter assay in 3D Tumor organoid. Stable engineered cells containing pCDH-TOPflash-luc-EF1-puro were used to generate tumor organoid arrayed in 96-well plates and treated for 72 hours. One-Glo™ luciferase reagent and CellTiter-Glo™ 3D cell viability reagent (Promega) were used to determine the TCF reporter activity in viable cells.
After characterizing 3 and 7 as TOP2A ATP-competitive inhibitors, these compounds were next tested for their ability to inhibit TOP2A-dependent TCF-transcription using the well characterized TOPflash (TOP) luminescent reporter, which was used to generate a stably transduced SW620-TOP reporter cells as described previously (Zhou, et al., Oncogene 2016, 35:4990-9). These cells were used to generate single 3D tumor organoids (700 μm in diameter) uniformly arrayed in 96-well plates, which mimic aspects of tumor function observed in vivo. […] Like neo, the mode of action of compounds 3 and 7 also results in significant antitumor activity (FIGS. 3E-3H). […]
3D Tumor organoid TOPflash reporter assay. […] Briefly, reagents were added to the spheroids at 1:1 ratio (v:v) and the plates were placed on an orbital shaker (300 rpm) for 10 min at room temperature before the luminescence was read with Envision plate reader (PerkinElmer, MA). […]

Chains of the proteins cited; added tags and fusions are not shown.
UniProt P11388, whole entry: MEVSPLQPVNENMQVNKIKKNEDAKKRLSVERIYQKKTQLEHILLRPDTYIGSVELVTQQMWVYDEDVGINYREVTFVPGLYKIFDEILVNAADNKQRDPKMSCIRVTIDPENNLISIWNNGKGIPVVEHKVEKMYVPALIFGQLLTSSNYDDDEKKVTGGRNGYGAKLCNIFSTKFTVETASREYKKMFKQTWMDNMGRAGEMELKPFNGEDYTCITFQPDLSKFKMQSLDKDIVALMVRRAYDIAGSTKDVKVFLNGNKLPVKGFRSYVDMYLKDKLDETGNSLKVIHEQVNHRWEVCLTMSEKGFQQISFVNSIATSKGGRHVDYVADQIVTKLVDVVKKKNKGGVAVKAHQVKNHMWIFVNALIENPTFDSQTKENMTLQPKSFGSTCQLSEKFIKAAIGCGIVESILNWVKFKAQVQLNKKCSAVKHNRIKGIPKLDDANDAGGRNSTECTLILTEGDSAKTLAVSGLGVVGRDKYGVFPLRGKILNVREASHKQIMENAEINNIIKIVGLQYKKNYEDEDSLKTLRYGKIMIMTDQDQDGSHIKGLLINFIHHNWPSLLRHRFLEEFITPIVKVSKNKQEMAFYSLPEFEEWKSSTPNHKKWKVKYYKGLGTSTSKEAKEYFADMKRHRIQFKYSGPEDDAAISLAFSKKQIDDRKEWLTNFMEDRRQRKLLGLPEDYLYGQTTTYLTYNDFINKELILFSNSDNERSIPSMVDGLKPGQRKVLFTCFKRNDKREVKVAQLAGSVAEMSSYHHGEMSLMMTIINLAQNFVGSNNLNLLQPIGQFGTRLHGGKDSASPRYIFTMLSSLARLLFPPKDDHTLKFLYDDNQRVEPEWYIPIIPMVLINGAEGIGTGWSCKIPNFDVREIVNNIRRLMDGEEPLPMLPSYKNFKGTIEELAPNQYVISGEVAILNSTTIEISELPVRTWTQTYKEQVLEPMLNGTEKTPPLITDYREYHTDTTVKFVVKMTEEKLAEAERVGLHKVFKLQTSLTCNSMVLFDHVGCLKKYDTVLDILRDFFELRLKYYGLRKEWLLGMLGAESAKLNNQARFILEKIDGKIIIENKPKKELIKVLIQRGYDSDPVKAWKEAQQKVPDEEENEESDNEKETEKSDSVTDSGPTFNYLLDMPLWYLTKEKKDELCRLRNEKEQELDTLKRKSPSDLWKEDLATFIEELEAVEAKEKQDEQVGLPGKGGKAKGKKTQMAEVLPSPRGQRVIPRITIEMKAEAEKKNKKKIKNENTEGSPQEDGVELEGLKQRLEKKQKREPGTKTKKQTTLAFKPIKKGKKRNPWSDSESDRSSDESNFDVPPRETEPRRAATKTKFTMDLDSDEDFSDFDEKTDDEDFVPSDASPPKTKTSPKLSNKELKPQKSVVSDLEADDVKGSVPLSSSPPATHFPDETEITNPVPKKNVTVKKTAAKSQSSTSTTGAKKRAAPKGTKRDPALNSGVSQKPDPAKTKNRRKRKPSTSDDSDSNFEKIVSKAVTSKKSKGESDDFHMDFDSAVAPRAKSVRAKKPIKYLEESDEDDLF

SW620 tumor organoids [4] = test: 3D invasion assay; settings: SW620 tumor organoids treated 72 hours, viable cells incubated further 72 hours
[5] = system: vimentin promoter activity (VimPro-GFP) in SW620 cells; test: VimPro-GFP EMT reporter assay; settings: SW620 tumor organoids

Question: Which “E-cadherin upregulation (EcadPro-RFP), in words” value [1] does the source give for COc1cc(NC(C)=O)c(O)c2nccc(-c3ccccc3NC(=O)c3ccccc3)c12 here?
Answer: Its value is “upregulation of E-cadherin”.

Question: And the EC50 ([1]; read-out: % E-cadherin upregulation EC50, Table 2, 72 hours)?
Answer: The EC50 was 6.7 µM.

Question: What about the “% Inhibition TOP2A (30 μM)” value (Human TOP2A; Table 1, decatenation, 30 μM fixed concentration) of the same compound?
Answer: The value was 100.0%.

Question: And the IC50 (Human TOP2A; read-out: IC50 TOP2A inhibition, decatenation dose response)?
Answer: The IC50 was 1 µM.

Question: What about the IC50 (SW620 tumor organoids [2]) of the same compound?
Answer: Its IC50 is over 30 µM.

Question: What about the IC50 [3] of the same compound?
Answer: Its IC50 is 2.4 µM.

Question: What about the “invasive potential, in words” value (SW620 tumor organoids [4]) of the same compound?
Answer: Its value is “inhibit the invasive potential”.

Question: What about the “vimentin downregulation (VimPro-GFP), in words” value [5] of the same compound?
Answer: Its value is “dose-dependent downregulation of vimentin”.

Question: And the EC50 ([5]; read-out: % Vimentin downregulation EC50, Table 2, 72 hours)?
Answer: The EC50 was 6.7 µM.
